These results are taken from US20130295185A1, “COMPOUNDS AND METHODS FOR INDUCING APOPTOSIS IN CANCER CELLS USING A BH3 ALPHA-HELICAL MIMETIC” (H. Lee Moffitt Cancer Center and Research Institute, Inc., priority 2011, published 2013).

The test system of experiment [1] is caspase-3 and -7. The experiment can be described thus: Caspase-3/-7 activity in A549 cells. The note with it: A549, n=3; tested form: diammonium salt (as drawn, CO2NH4). On the procedure: Release of cytochrome c from isolated mitochondria was measured as described by Takahashi et al. (Takahashi, Y., Karbowski, M., Yamaguchi, H., Kazi, A., Wu, J., Sebti, S. M., Youle, R. J., and Wang, H. G. (2005) Mol Cell Biol 25, 9369-9382) Cell-free caspase-3/-7 activity and the extent of PARP cleavage was determined as described previously. (Kazi, A., Smith, D. M., Zhong, Q., and Dou, Q. P. (2002) Mol Pharmacol 62, 765-771) MTT (3-(4,5-dimethylthiazol-2-yl)-2,5-diphenyltetrazolium bromide) and TUNEL assays were performed according to Kazi et al., both of which are incorporated herein by reference. (Kazi, A., Lawrence, H., Guida, W. C., McLaughlin, M. L., Springett, G. M., Berndt, N., Yip, R. M. L., and Sebti, S. M. (2009) Cell Cycle 8, 1940-1951)
In addition, BH3-M6 induced apoptosis as measured by DAPI staining (FIG. 5B) and the appearance of an 85 kDa PARP fragment in a concentration-dependent manner (FIG. 5C). Furthermore, treatment of A549 cells with BH3-M6 induced activation of caspase-3 and -7 by about 2.7±0.1-fold (n=3) compared to controls (data not shown) and it inhibited cell viability as measured by MTT assay in a dose-dependent manner (FIG. 5D).

Experiment [2] concerns LNCaP cells. The experiment can be described thus: PARP cleavage in LNCaP cells. To be noted: tested form: diammonium salt (as drawn, CO2NH4). On the procedure:
(§1) FIG. 6 is a series of images illustrating BH3-M6 induces apoptosis in a Bcl-2-, Bcl-XL-, and Mcl-1-dependent manner. BH3-M6 induces caspase-3/-7 activities and apoptosis in Bcl-XL/Bim, Bcl-2/Bim and Mcl-1/Bim overexpressing cells. MDA-MB-468 cells transfected with Bcl-XL-IRES-BimEL, Bcl-2-IRES-BimEL, and Mcl-1-IRES-BimEL were grown in 100-mm plates and treated with 0, 25, 50, or 100 μM BH3-M6 or 100 μM of TPC for 24 h at 37° C. Cells were then harvested and lysed using 0.2% NP-40 lysis buffer (without protease and phosphatase inhibitors for cell-free caspase assay and with protease and phosphatase inhibitors for Western blot analysis). (A) Caspase-3/-7 activity was determined by incubating whole-cell extracts with caspase-3/-7 substrate and measuring free AMCs (left panel), apoptosis was quantified by TUNEL assay (middle panel), gray: TPC, black: BH3-M6. BimEL, Bcl-XL, Bcl-2 and Mcl-1 expression levels were determined by Western blotting (right panel). (B) PARP cleavage by Western blotting. (C) Expression levels of different anti- and pro-apoptotic proteins in DU-145 and LNCaP cells as determined by Western blotting. (D) BH3-M6 induces apoptosis in LNCaP human prostate cancer cells expressing Bax, but not in DU-145 human prostate cancer cells lacking detectable Bax expression. LNCaP and DU-145 cells were treated with 0, 25 and 50 μM of BH3-M6 or 50 μM of TPC for 24 h. Cells were lysed and subjected to Western blot analysis. (E) Depletion of Bax, but not Bak by siRNA renders LNCaP cells resistant to apoptosis. LNCaP cells were transfected with 10 nM Bax or Bak siRNA or control siRNA for 48 h, followed by 24 h treatment with or without 25 or 50 μM BH3-M6. Cells were lysed and subjected to Western blot analysis with the indicated antibodies.
Bax and Bak expression levels were silenced by siRNA using a transfection protocol previously described by the inventors and incorporated herein by reference. […]

The subject of experiment [3] is DU-145 cells. The experiment can be described thus: PARP cleavage in DU-145 cells. To be noted: DU-145 (undetectable Bax), 24 h; tested form: diammonium salt (as drawn, CO2NH4). How it is done: as §1, with “Cells were lysed and subjected to Western blot analysis. (E) Depletion of Bax, but not Bak by siRNA renders LNCaP cells resistant to apoptosis. LNCaP cells were transfected with 10 nM Bax or Bak siRNA or control siRNA for 48 h, followed by 24 h treatment with or without 25 or 50 μM BH3-M6. Cells were lysed and subjected to Western blot analysis with the indicated antibodies.” left out

Molecules are shown by their SMILES.

With `CC(C)Cc1cc(-c2ccc(-c3ccc(CCC(=O)O)cc3CC(C)C)cc2Cc2ccccc2)ccc1OCC(=O)O`, the “activation of caspase-3 and -7 compared to controls” value in experiment [1] is “about 2.7±0.1 fold”. Further, the PARP cleavage result is “induced PARP cleavage in LNCaP cells” in experiment [2] (LNCaP (high Bax), 25 and 50 μM BH3-M6 or 50 μM TPC, 24 h); “but not in DU-145 cells” in experiment [3]. Besides, the “BH3-M6-induced PARP cleavage after Bak siRNA silencing” value in experiment [2] (LNCaP, 10 nM Bak siRNA 48 h, then 24 h treatment) is recorded as “but not Bak”. Further, in experiment [2] (LNCaP, 10 nM Bax siRNA 48 h, then 24 h treatment), the “BH3-M6-induced PARP cleavage after Bax siRNA silencing” value is “prevented”.
